Publication PMC4412257, “2′,6′-Dimethylphenylalanine: A Useful Aromatic Amino Acid Surrogate for Tyr or Phe Residue in Opioid Peptides” (International Journal of Medicinal Chemistry, 2012)
Where two headings read alike, the source gives them in different places.

Legend:
δ-opioid receptor = conditions: versus [3H]DT, read-out: Receptor binding affinity, Ki ± S.E., δ, cited from earlier work
[1] = tested on: MVD (δ): mouse vas deferens, δ-receptors; experiment: isolated mouse vas deferens (MVD) assay; type: cell-based; conditions: Table 1; ratio of IC50 values
Method: The usefulness of Dmp was first investigated as a surrogate for Phe^4 in ENK analogs. The receptor-binding affinities of synthetic analogs were determined using rat brain, as previously reported. […] The D-Dmp replacement of ENK (11) induced significant reduction in binding affinity for both receptors. […] In vitro biological activity of ENK analogs was evaluated using isolated guinea pig ileum (GPI) and mouse vas deferens (MVD) tissue samples, as previously reported. The GPI tissue contains predominantly μ-receptors, while MVD tissue contains δ-receptors. […] In contrast, 11 was devoid of activity in both assays, as expected from the binding data. […] This analog turned out to be a potent μ-antagonist and a weak δ-antagonist. […] The results of 13 are in line with observations that Dmt-D-Phe-NH2 and its C-terminally extended analog are μ-receptor antagonists.

μ-opioid receptor = conditions: versus [3H]DAMGO, read-out: Receptor binding affinity, Ki ± S.E., μ, cited from earlier work

## Tyr-Gly-Gly-Phe-Leu [ENK, reference compound]
δ-opioid receptor; Table 1, rat brain
  Ki: 1.43 ± 0.71 nM
δ-opioid receptor; Table 6
  Ki: 1.43 ± 0.71 nM
[1]
  GPI/MVD: 4.64
μ-opioid receptor; Table 1, rat brain
  Ki: 2.42 ± 0.93 nM
μ-opioid receptor; Table 6
  Ki: 2.42 ± 0.93 nM
